## Apparent affinities of Ab-14 variants for a coronavirus HR2 peptide

Target peptide (SARS-CoV-2 spike, HR2 region): PDVDLGDISGINAS

Parent scFv Ab-14: VH joined to VL by three GGGGS repeats. Changes lie in the heavy chain CDRs alone.
VH: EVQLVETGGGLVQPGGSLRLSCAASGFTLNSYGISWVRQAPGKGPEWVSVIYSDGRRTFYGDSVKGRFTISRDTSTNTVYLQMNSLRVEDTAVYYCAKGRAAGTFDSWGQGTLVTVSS
VL: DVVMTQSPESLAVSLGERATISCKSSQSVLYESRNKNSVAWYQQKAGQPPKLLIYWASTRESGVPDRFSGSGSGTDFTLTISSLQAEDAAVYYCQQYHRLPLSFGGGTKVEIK

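The parent was found by panning a naive human phage display library on the peptide. Designed CDR sequences, proposed from the first random library and measured here. Group labels follow the data file (Ctrl: baseline library sampled from a position-specific scoring matrix, with some repeated check sequences; Rand: our label for a block that the file lists under HC and that is probably the random mutants of the ten best first-round binders; En: ensemble of fine-tuned language models; GP: Gaussian process model; GPLM: also part of the Gaussian process libraries; HC: hill climbing; Gen: genetic algorithm; Gibbs: Gibbs sampling; a sequence that several methods proposed may carry one label only). Affinity was read by AlphaSeq, a pooled yeast mating assay with surface-displayed partners. The frequency of each diploid, read from paired DNA barcodes, reflects how well the two displayed proteins bind. Each replicate has its own calibration line, from reference interactions of the BCL2 family. Each pool was mated in six replicate cultures.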

The parent's heavy chain CDRs are GFTLNSYGIS, VIYSDGRRTFYGDSVK, GRAAGTFDS; each variant's own CDRs replace them letter for letter. Values are apparent Kd, the geometric mean of the replicates that gave a signal; lower means stronger binding. Where no diploid with the target was found in any replicate, the entry reads "not detected": below detection, most likely a poor binder, though not proof of it.

{"CDR-H1": "GFTLDSYMIS", "CDR-H2": "VIYSDGRRNFYGDSVK", "CDR-H3": "GRAAGTAFS", "group": "Rand", "Kd (apparent)": "not detected", "replicates with signal": "0/6", "empty controls": "1/18"}
{"CDR-H1": "GFTLNSYGIS", "CDR-H2": "VIYADGRRTFYGDSVK", "CDR-H3": "GRLAGTFDI", "group": "GP_HC", "Kd (apparent)": "20 nM", "replicates with signal": "6/6", "empty controls": "1/18"}
{"CDR-H1": "GFDLNEYGIS", "CDR-H2": "VIYADGVRTAYVDSVK", "CDR-H3": "GNNAGTFDL", "group": "En_Gen", "Kd (apparent)": "240 pM", "replicates with signal": "6/6", "empty controls": "0/18"}
{"CDR-H1": "GKSLDDYGIS", "CDR-H2": "VIYADGLRTSYTETVK", "CDR-H3": "GNSGGVFIV", "group": "En_Gibbs", "Kd (apparent)": "not detected", "replicates with signal": "0/6", "empty controls": "0/18"}
{"CDR-H1": "GFDLNEYGIS", "CDR-H2": "VIYADGRRTFYTDSVK", "CDR-H3": "GGNAGTFDT", "group": "En_HC", "Kd (apparent)": "88 pM", "replicates with signal": "5/6", "empty controls": "0/18"}
{"CDR-H1": "GFQLNSYGIS", "CDR-H2": "VIYSDGRRTFYDDSVK", "CDR-H3": "GQTAGTFDS", "group": "GPLM_Gibbs", "Kd (apparent)": "2.2 nM", "replicates with signal": "6/6", "empty controls": "0/18"}
{"CDR-H1": "GFTLNQYYIS", "CDR-H2": "VIYSDGRRTFASFSVK", "CDR-H3": "GRAAGFMDS", "group": "Rand", "Kd (apparent)": "not detected", "replicates with signal": "0/6", "empty controls": "1/18"}
{"CDR-H1": "GFDLKEYGIS", "CDR-H2": "VIYADGSRTAYSKNFK", "CDR-H3": "GEDDIMVLV", "group": "En_Gibbs", "Kd (apparent)": "not detected", "replicates with signal": "0/6", "empty controls": "0/18"}
{"CDR-H1": "GFDLNEYGIS", "CDR-H2": "VIYADGVRTAYSDDVK", "CDR-H3": "GENAGTFDL", "group": "En_Gen", "Kd (apparent)": "440 pM", "replicates with signal": "5/6", "empty controls": "0/18"}
{"CDR-H1": "GFDLNEYGIS", "CDR-H2": "VIYADGRRTFYVDSVK", "CDR-H3": "GTNGGTFDV", "group": "En_HC", "Kd (apparent)": "1.3 nM", "replicates with signal": "6/6", "empty controls": "1/18"}
{"CDR-H1": "GYDLDQYGIS", "CDR-H2": "VIYADGKRSYYADSVK", "CDR-H3": "GHEGGILYV", "group": "En_Gibbs", "Kd (apparent)": "840 nM", "replicates with signal": "1/6", "empty controls": "0/18"}
{"CDR-H1": "GFDLEKYGIS", "CDR-H2": "VIYADGIRKVYDQSVK", "CDR-H3": "GQMAGSFTV", "group": "En_Gibbs", "Kd (apparent)": "200 nM", "replicates with signal": "2/6", "empty controls": "0/18"}
{"CDR-H1": "GFDLNSYGIS", "CDR-H2": "VIYSDGRRTFYSDSVK", "CDR-H3": "GVAAGTFDS", "group": "GPLM_Gibbs", "Kd (apparent)": "3.7 nM", "replicates with signal": "6/6", "empty controls": "0/18"}
{"CDR-H1": "GFNLNSYGIS", "CDR-H2": "VIYSDGRRTFYVDSVK", "CDR-H3": "GKQAGTFDS", "group": "GPLM_Gibbs", "Kd (apparent)": "55 nM", "replicates with signal": "5/6", "empty controls": "0/18"}
{"CDR-H1": "GFDLNEYGIS", "CDR-H2": "VIYADGRRTAYADSVK", "CDR-H3": "GQNAGTFDI", "group": "En_Gen", "Kd (apparent)": "340 pM", "replicates with signal": "6/6", "empty controls": "0/18"}
{"CDR-H1": "GFTLNMYGIS", "CDR-H2": "VIYSDGRRTFYGDSVK", "CDR-H3": "GRAAGWFDS", "group": "Ctrl", "Kd (apparent)": "4.1 nM", "replicates with signal": "6/6", "empty controls": "0/18"}
{"CDR-H1": "GFTLNSYGIS", "CDR-H2": "VIYSDGERTFYGDSVK", "CDR-H3": "DYAAGTFDI", "group": "Ctrl", "Kd (apparent)": "not detected", "replicates with signal": "0/6", "empty controls": "0/18"}
{"CDR-H1": "GFDLDEYGIS", "CDR-H2": "VIYADGQRTAYADKVK", "CDR-H3": "GNNAGTFDV", "group": "En_Gen", "Kd (apparent)": "950 pM", "replicates with signal": "6/6", "empty controls": "0/18"}
{"CDR-H1": "GFTLNSYGIS", "CDR-H2": "VIYSDGRRTFYADSVK", "CDR-H3": "GRATGTFDW", "group": "Ctrl", "Kd (apparent)": "not detected", "replicates with signal": "0/6", "empty controls": "0/18"}
{"CDR-H1": "GFDLEKYGIS", "CDR-H2": "VIYADGKRVAYTDDVK", "CDR-H3": "GVTGGMLMS", "group": "En_Gibbs", "Kd (apparent)": "not detected", "replicates with signal": "0/6", "empty controls": "0/18"}
{"CDR-H1": "KFDLNSYGIS", "CDR-H2": "VIYSDGRRTFYADSVK", "CDR-H3": "GQAAGTFDS", "group": "GPLM_Gen", "Kd (apparent)": "22 nM", "replicates with signal": "6/6", "empty controls": "0/18"}

Top 3 of the variants detected in all replicates, tightest first:

{"CDR-H1": "GFDLNEYGIS", "CDR-H2": "VIYADGVRTAYVDSVK", "CDR-H3": "GNNAGTFDL", "group": "En_Gen", "Kd (apparent)": "240 pM", "replicates with signal": "6/6", "empty controls": "0/18"}
{"CDR-H1": "GFDLNEYGIS", "CDR-H2": "VIYADGRRTAYADSVK", "CDR-H3": "GQNAGTFDI", "group": "En_Gen", "Kd (apparent)": "340 pM", "replicates with signal": "6/6", "empty controls": "0/18"}
{"CDR-H1": "GFDLDEYGIS", "CDR-H2": "VIYADGQRTAYADKVK", "CDR-H3": "GNNAGTFDV", "group": "En_Gen", "Kd (apparent)": "950 pM", "replicates with signal": "6/6", "empty controls": "0/18"}

Nonspecific signal, from three strains lacking the peptide, appeared in 1% of pairings of all heavy chain designs, centred on 120 nM (5% of these signals below 7.0 nM); values are not corrected for it. Also given: how often the same scFv was detected with the empty control strains. Of ten entries with the parent sequence, four were seen in most replicates (averages 2.2 nM to 240 nM), three in one and three in none, so single entries are noisy. In the paper, a design with two or fewer of six values counts as a poor binder. The range of this assay differs from that of the first round, and the authors advise against merging the two.

Values reported by Li et al. 2023, doi:10.1038/s41467-023-39022-2 (FLAb copy).